Measured values reported in patent US20170101466A1 (published 2017).

Sequences of proteins named here, by UniProt entry; tags and fusion partners are left off. Residues count along the entry.
UniProt Q9WU72, 127-309 limits assumed: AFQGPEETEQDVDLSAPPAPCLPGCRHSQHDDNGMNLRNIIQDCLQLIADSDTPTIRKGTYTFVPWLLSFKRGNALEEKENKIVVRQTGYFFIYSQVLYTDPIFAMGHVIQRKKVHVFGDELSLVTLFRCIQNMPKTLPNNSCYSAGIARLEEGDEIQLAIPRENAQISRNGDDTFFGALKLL
UniProt Q9Y275, 134-285 limits assumed: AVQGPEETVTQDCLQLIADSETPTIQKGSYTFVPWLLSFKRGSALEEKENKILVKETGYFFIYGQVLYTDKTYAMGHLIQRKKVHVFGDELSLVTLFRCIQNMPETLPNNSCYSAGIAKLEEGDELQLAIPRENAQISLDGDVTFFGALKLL

B1: 10C11 IgG expressed in HEK293 cells (antibody, V domains shown)
VH: EVQLVQSGAEVKKPGSSVKVSCKASGGTFSSYAISWVRQAPGQGLEWMGRIIPILGIANYAQKFQGRVTITADKSTSTAYMELSRLRSDDTAVYYCARDRFYDILTGYYTYYYGMDVWGQGTTVTVSS
VL: DIVLTQSPGTLSFSPGERATLSCRASQNVANNFLAWFQHSPGQAPRLLIYDASNRATGIPARFSGSGSGTDFTLTISSLQTEDVAVYYCQQYYNLPYTFGQGTKLEIKR
B2: 10C11 IgG1 F243A/V264A double mutein expressed in Pichia pastoris (antibody, V domains shown)
VH: B1 VH
VL: B1 VL
B3: 1B7 IgG1 F243A/V264A double mutein expressed in Pichia pastoris (antibody, V domains shown)
VH: QVQLVQSGAKVKKPGASAKVSCKASGYTFTSYAMHWVRQAPGQRLEWMGWINAGNGNTKYSQKFQGRVTITRDTSASTAYMELSSLRSEDTAVYYCARAYYDILTGYSVYGMDVWGQGTTVTVSS
VL: EIVLTQSPATLSLSPGERATLSCWTSQGVSGHLAWYQHKRGQAPRLLIYDTSNRATGVPARFSGSGSGTDFTLTISRLEPEDFAVYYCQQYGSSFWTFGQGTKVEIKR
B4: 1B7 IgG expressed in HEK293 cells (antibody, V domains shown)
VH: B3 VH
VL: B3 VL

How the values were obtained:
soluble cynomolgus BLyS = target: T1, soluble cynomolgus BLyS (cynomolgus, UniProt A0A2K5V2X4 134-285); test: ELISA, soluble cyBLyS
T1 construct: Soluble form; also called cyBLyS; Soluble cyBLyS

soluble mouse BLyS [1] = target: T2, soluble mouse BLyS (mouse, UniProt Q9WU72 127-309); test: DELFIA competition, Eu-mBLyS binding to coated BCMA
T2 construct: europium-labelled in DELFIA; also called mBLyS; mouse BAFF (BLyS)
Method: (§1) Anti-BLyS mAb receptor blocking assay was evaluated using Perkin Elmer's DELFIA assay technology (dissociation-enhanced lanthanide fluorescence immunoassay) which is a time-resolved fluorescence (TRF) intensity technology. […] DELFIA yellow 96-well low auto-fluorescent assay plates (PE, Cat #AAAND-0001) were coated overnight at 4° C. with 0.1 μg/well of select human or mouse BLyS cognate receptor chimera from R&D Systems (BCMA, BR3 and TACI). After 5× washing with 200 ul/well of DELFIA 1× wash solution (PE, Cat #4010-0010), plates were blocked with 3% BSA purified from trace heavy metal amounts (PE, Cat #CR84-100) for 3 hours with shaking at room temperature. Plates were washed again five times at 200 μl/well with DELFIA wash solution.
(§2) After wash, 50 μl/well of BLyS mAbs were added to wells across the plate in a 9 point 1/3-fold dilution titration series starting at 2,000 pM to 0.3 pM. The final 3 wells across the plate served as controls (2 wells contained 2,000 pM mAbs for negative and background controls while the third contained no mAbs for positive control). 50 ul/well of 100 pM BLyS was then added to each well, except the negative-control wells, and plates were briefly spun down. After 18-24 hrs at 4° C., plates were read on PE EnVision plate reader with laser excitation, LANCE/DELFIA top mirror, and emission filter Eu-615 with a delay of 400 μs. Data were fit to four parameter (variable slope) inhibition dose response curve using GraphPad PRISM 5.0 software.

soluble human BLyS [2] = target: T3, soluble human BLyS (human, UniProt Q9Y275 134-285); test: DELFIA competition, Eu-hBLyS binding to coated BR3
T3 construct: also called hBLyS; human BAFF (BLyS)
Method: as §1, §2

soluble human BLyS [3] = target: T3, soluble human BLyS; test: DELFIA competition, Eu-hBLyS binding to coated BCMA
Method: as §1, §2

soluble human BLyS [4] = target: T3, soluble human BLyS; test: Biacore, antibody captured on chip, BLyS injected, 1:1 model, 25 C
Method: (§3) Recombinant protein NG (Thermo Scientific, Cat #21186) was diluted to 100 μg/ml in 10 mM sodium acetate pH 4.0 and then immobilized on the surface of a pre-activated Series S CM5 Biacore chip (GE, Cat #BR-1005-34) using amine coupling. To determine binding kinetics of anti-BLyS antibodies to human BLyS (R&D systems, Cat #2149-BF-010/CF) or mouse BLyS (R&D Systems, Cat #2106-BF-010/CF), the mAbs were captured on each of the four CM5 chip flow cells (with flow cell one serving as a control and reference) by injecting 0.5 μg/ml Abs over individual flow cells for 30 seconds at 10 μl/min (yields ˜100 RU capture). hBLyS or mBLyS was then passed over all four flow cells at 30-50 μl/min for 600 seconds, followed by a dissociation period of 2,400 seconds. After the dissociation period, the chip was regenerated back to baseline by injecting 10 mM glycine pH 1.5 for 120 seconds over the four flow cells. This was repeated for each BLyS injection over 11 injections of a 2/3-fold dilution titration range starting at 20 nM. The entire data set was fit to a 1:1 interaction model to give kₒₙ, koff, and Kd values. The assay was run at 25° C. in 1× biacore running buffer HBS-EP+ (GE, Cat #BR-1006-69).

soluble mouse BLyS [5] = target: T2, soluble mouse BLyS; test: as above
Method: as §3

soluble human BLyS [6] = target: T3, soluble human BLyS; test: blocking of biotinylated soluble hBLyS binding to immobilized mBR3
soluble mouse BLyS [7] = target: T2, soluble mouse BLyS; test: DELFIA competition, Eu-mBLyS binding to coated TACI
Method: as §1, §2

soluble human BLyS [8] = target: T3, soluble human BLyS; test: Biacore
soluble mouse BLyS [9] = target: T2, soluble mouse BLyS; test: Biacore
soluble human BLyS [10] = target: T3, soluble human BLyS; test: ELISA, soluble hBLyS
soluble mouse BLyS [11] = target: T2, soluble mouse BLyS; test: ELISA, soluble mBLyS
soluble mouse BLyS [12] = target: T2, soluble mouse BLyS; test: DELFIA competition, Eu-mBLyS binding to coated BR3
Method: as §1, §2

soluble human BLyS [13] = target: T3, soluble human BLyS; test: DELFIA competition, Eu-hBLyS binding to coated TACI
Method: as §1, §2

human APRIL = target: T4, human APRIL (human, UniProt O75888 105-250, limits assumed); test: Biacore, antibody captured, APRIL injected
T4 construct: Bought recombinant protein; also called hAPRIL
T4 sequence (looked up): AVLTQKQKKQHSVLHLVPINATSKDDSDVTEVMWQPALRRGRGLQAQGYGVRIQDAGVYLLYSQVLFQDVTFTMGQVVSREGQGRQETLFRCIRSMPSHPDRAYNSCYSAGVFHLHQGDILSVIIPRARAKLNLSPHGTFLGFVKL
Method: (§4) Recombinant protein NG (Thermo Scientific, Cat #21186) was diluted to 100 μg/ml in 10 mM Sodium Acetate pH 4.0 and then immobilized on the surface of a pre-activated Series S CM4 Biacore chip (GE, Cat #BR-1005-34) using amine coupling. The monoclonal antibodies were captured individually on each of the four CM4 chip flow cells (with flow cell one serving as a reference) by injecting about 5 μg/ml monoclonal antibodies over individual flow cells for 120 seconds at 10 μl/min (yields 1,000-2,000 RU capture). To determine binding of human APRIL (R&D Systems, Cat #5860-AP-010/CF) and mouse APRIL (R&D Systems, Cat #7907-AP-010/CF) to the anti-BLyS antibodies, the APRIL protein as injected manually at 50 nM for 300 seconds at 10 μl/min. Binding response was measured as the difference in total RU increase during 300 second APRIL injection of each individual flow cell and the reference flow cell (e.g., Flow cell 2-1).

soluble human BLyS [14] = target: T3, soluble human BLyS; test: Biacore T100, binder captured by anti-human Fc, BLyS injected, 1:1 model
Method: (§5) A Series S CM5 Chip (GE Healthcare) was amine coupled with an anti-human Fc capturing antibody (GE Healthcare Human Fc Kit) to >10,000 RUs. Sample antibodies were diluted in 1×HBS-EP+ running buffer to 0.15 ug/mL and injected for 45 seconds at 10 uL/min. Serially diluted human or mouse BLyS (R&D Systems) was injected for 6 minutes at 30 μl/min and dissociation was monitored for 20 minutes. The anti-BLyS and BLyS complex were removed from the capture surface with 3M MgCl₂ for 40 seconds at 10 μl/min. Binding data was reference subtracted with both a negative BLyS binder (commercial Herceptin) and a 0 μM BLyS injection. Biacore Evaluation software was used to fit the data to a 1:1 Binding Model.

soluble mouse BLyS [15] = target: T2, soluble mouse BLyS; test: as above
Method: as §5

mouse APRIL [16] = target: T5, mouse APRIL (mouse, UniProt Q9D777 96-241, limits assumed); test: Biacore, antibody captured, APRIL injected at 50 nM
T5 construct: Bought recombinant protein; also called mAPRIL
T5 sequence (looked up): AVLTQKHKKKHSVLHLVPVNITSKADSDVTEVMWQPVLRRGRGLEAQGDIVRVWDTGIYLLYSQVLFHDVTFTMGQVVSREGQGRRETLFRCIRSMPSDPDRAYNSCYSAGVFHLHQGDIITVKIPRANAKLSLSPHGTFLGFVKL
Method: as §4

mouse APRIL [17] = target: T5, mouse APRIL; test: Biacore, antibody captured, APRIL injected
Method: as §4

Row | Binder | IC50 (soluble cynomolgus BLyS) [pM] | IC50 (soluble mouse BLyS [1]) [pM] | IC50 (soluble human BLyS [2]) [pM] | IC50 (soluble human BLyS [3]) [pM] | Kd (soluble human BLyS [4]) [pM] | koff (soluble human BLyS [4]) [s⁻¹] | kon (soluble human BLyS [4]) [M⁻¹ s⁻¹] | Kd (soluble mouse BLyS [5]) [pM] | koff (soluble mouse BLyS [5]) [s⁻¹] | kon (soluble mouse BLyS [5]) [M⁻¹ s⁻¹] | IC50 (soluble human BLyS [6]) [pM] | IC50 (soluble mouse BLyS [7]) [pM] | Kd (soluble human BLyS [8]) [pM] | Kd (soluble mouse BLyS [9]) [pM] | IC50 (soluble human BLyS [10]) [pM] | IC50 (soluble mouse BLyS [11]) [pM] | IC50 (soluble mouse BLyS [12]) [pM] | IC50 (soluble human BLyS [13]) [pM] | binding result (human APRIL) | Kd (soluble human BLyS [14]) [pM] | other results
1 | B1 | 70 | 886 | 33.5 | < 0.3 | 201 | 4.4e-05 | 220000 | 153 | 6.5e-05 | 430000 | 70 | 732 | 430 | 31.3 | 100 | 40 | > 2000 | < 0.3 | no binding (tested: 50 nM) | – | –
2 | B2 | – | > 2000 | 41 | 1.2 | 194 | 4.3e-05 | 220000 | 154 | 6.6e-05 | 430000 | – | > 2000 | – | – | – | – | > 2000 | 1.2 | no binding (tested: 50 nM) | 98 | koff (soluble human BLyS [14]): 8.4e-05 s⁻¹; kon (soluble human BLyS [14]): 855000 M⁻¹ s⁻¹; Kd (soluble mouse BLyS [15]): 134 pM; koff (soluble mouse BLyS [15]): 0.000275 s⁻¹; kon (soluble mouse BLyS [15]): 2.06e+06 M⁻¹ s⁻¹; binding result (mouse APRIL [16]): binds
3 | B3 | – | > 2000 | 22.2 | < 0.3 | 109 | 3.1e-05 | 290000 | 82 | 3.8e-05 | 470000 | – | > 2000 | – | – | – | – | > 2000 | < 0.3 | no binding (tested: 50 nM) | 64 | koff (soluble human BLyS [14]): 9.61e-05 s⁻¹; kon (soluble human BLyS [14]): 1.42e+06 M⁻¹ s⁻¹; Kd (soluble mouse BLyS [15]): 57 pM; koff (soluble mouse BLyS [15]): 0.000171 s⁻¹; kon (soluble mouse BLyS [15]): 2.98e+06 M⁻¹ s⁻¹; binding result (mouse APRIL [17]): no binding (tested: 50 nM)
4 | B4 | 100 | > 2000 | 20.6 | < 0.3 | 168 | 5.3e-05 | 310000 | 103 | 5e-05 | 490000 | 910 | > 2000 | 1730 | 12.7 | 100 | 130 | > 2000 | < 0.3 | no binding (tested: 50 nM) | – | binding result (mouse APRIL [17]): no binding (tested: 50 nM)
